Measurements taken from patent publication US20100172870A1, “METHODS, USES AND COMPOSITIONS FOR MODULATING REPLICATION OF HCV THROUGH THE FARNESOID X RECEPTOR (FXR) ACTIVATION OR INHIBITION” (priority 2006, published 2010).

Tested on: genotype 1b replicon (R1b)
Assay: HCV subgenomic replicon R1b luciferase assay
Assay type: cell-based, hepatitis C virus (HCV)
Excerpt: Replicons: Three subgenomic replicons were used in this study: two replicative forms called R1a and R1b according to their genotype origin and a derivative of the R1b replicon with a mutation in the RNA-dependant RNA polymerase (Rp-del) which is thus unable to replicate and was used as a negative control in all experiments. They are bicistronic RNAs which contains the firefly luciferase (Photinus pyralis) reporter gene downstream of the HCV IRES and the sequence coding for the polyprotein NS3 to NS5B downstream of the encephalomyocarditis virus (EMCV) IRES.
RNA transfection: The replicons were transfected into Huh7 cells by electroporation.
Subconfluent monolayers of Huh7 cells were detached from the culture dish by trypsin treatment and rinsing with complete DMEM. […] 400 μL of the cell suspension was mixed by gentle pipetting with 8 μg RNA (R1a, R1b or Rp-del) and transferred into an electroporation cuvette with a gap-width of 0.4 cm (BioRad). The mixture was immediately subjected to one electric pulse at 270 V, 950 μF and maximum resistance using a Gene Pulser System (BioRad).
After electroporation the 400 μL of each cell suspension was diluted in 9 mL complete DMEM and pooled together before being seeded onto 24-well plates (1 mL per well).
Luciferase Assay: Cells were washed with PBS and scraped off the plate with 80 μL of 1× Luciferase Cell Culture Lysis Reagent (Promega). 40 μL of the lysate were transferred to a 96-well plate and mixed with 200 μL of Luciferase Assay Reagent (Promega). Luminescence expressed as relative light units (RLU) was measured immediately on a scintillation counter (Top Count NXT, Perkin Elmer) for 10 s.
The data are averages from triplicate cultures. […] The values are expressed as relative ratios of the values obtained 4 h after electroporation. Unless otherwise stated, the RLU values were determined 72 h after transfection when cells were confluent.

## IFN: IFNa-2b from Schering-Plough
10 μM of GGS added, CDCA treated cells
  IFN concentration reaching an inhibition of 90% of the replication, with GGS, CDCA: 0.2 U/mL
10 μM of GGS added, mock treated cells
  IFN concentration reaching an inhibition of 90% of the replication, with GGS, mock: 0.1 U/mL
Huh7-Lunet cells, 72 h, both with CDCA 100 μM and BA-untreated
  concentration at which IFN treatment began to be effective: 0.1 U/mL
Huh7-Lunet cells, CDCA 100 μM, 72 h
  IC50 of IFN on replication, in presence of CDCA: 0.3 U/mL
Huh7-Lunet cells, R1b alone, 72 h
  IC50 of IFN on replication, BA-untreated cells: 0.25 U/mL
Mock and CDCA treated cells, without GGS
  IFN concentration reaching an inhibition of 90% of the replication: 0.9 U/mL
